Reference: paper doi:10.1101/2023.02.06.527244 (bioRxiv, 2023)

Target: T1, syntaxin 3 (aa 1-260), cytoplasmic domain (rat (Rattus norvegicus), UniProt Q08849 1-260)
T1 sequence (looked up): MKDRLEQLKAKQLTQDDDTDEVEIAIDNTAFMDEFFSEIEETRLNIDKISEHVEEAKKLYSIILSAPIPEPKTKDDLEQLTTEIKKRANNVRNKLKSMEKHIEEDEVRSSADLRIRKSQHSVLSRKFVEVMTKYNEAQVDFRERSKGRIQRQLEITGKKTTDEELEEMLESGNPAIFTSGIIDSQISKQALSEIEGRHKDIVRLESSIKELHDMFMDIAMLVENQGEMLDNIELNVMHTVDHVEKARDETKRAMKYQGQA
Assay: SDS-resistant complex on SDS-PAGE

B1: synaptobrevin-2 (Syb2([…])), cytoplasmic domain (domain or fragment)
chain: not shown
B1: binds.
